One may read the pIC50 as the IC50 on a negative log10 scale, so that one unit is a factor of ten.

By UniProt entry, the sequences of proteins in these tests, tags left out. Where a name states a change or a piece, a line headed by the entry shows the natural chain unless it says otherwise.
UniProt P29597: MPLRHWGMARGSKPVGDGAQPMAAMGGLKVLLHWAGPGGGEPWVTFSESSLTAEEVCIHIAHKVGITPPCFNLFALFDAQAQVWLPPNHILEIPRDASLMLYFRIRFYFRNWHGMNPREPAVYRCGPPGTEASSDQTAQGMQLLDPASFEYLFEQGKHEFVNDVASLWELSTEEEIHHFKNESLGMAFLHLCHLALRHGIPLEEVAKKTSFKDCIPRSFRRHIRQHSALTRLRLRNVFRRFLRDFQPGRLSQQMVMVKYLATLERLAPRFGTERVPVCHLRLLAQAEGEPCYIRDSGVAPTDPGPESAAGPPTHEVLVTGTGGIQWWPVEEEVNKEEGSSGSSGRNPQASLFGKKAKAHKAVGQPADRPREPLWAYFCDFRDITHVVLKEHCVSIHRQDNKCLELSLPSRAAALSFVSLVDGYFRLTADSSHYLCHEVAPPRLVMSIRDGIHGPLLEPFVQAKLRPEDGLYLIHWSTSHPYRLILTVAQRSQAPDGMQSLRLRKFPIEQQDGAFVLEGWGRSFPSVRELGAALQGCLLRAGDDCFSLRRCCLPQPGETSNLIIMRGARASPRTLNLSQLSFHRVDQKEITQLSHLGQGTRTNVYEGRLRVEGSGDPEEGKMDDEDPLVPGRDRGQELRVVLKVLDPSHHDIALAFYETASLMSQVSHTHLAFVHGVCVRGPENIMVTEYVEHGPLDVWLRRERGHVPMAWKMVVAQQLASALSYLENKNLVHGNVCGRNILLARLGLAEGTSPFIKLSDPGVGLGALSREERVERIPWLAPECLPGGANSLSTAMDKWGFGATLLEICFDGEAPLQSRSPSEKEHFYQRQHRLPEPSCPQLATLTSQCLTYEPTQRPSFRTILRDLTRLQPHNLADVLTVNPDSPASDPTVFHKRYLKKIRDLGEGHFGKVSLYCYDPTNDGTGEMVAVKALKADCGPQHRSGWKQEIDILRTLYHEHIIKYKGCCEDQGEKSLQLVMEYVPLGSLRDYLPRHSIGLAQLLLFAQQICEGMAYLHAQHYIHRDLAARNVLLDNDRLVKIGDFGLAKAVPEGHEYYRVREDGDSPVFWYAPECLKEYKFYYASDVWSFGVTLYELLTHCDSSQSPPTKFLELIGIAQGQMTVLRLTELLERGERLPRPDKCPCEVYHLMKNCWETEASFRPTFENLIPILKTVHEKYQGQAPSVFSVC
UniProt O60674: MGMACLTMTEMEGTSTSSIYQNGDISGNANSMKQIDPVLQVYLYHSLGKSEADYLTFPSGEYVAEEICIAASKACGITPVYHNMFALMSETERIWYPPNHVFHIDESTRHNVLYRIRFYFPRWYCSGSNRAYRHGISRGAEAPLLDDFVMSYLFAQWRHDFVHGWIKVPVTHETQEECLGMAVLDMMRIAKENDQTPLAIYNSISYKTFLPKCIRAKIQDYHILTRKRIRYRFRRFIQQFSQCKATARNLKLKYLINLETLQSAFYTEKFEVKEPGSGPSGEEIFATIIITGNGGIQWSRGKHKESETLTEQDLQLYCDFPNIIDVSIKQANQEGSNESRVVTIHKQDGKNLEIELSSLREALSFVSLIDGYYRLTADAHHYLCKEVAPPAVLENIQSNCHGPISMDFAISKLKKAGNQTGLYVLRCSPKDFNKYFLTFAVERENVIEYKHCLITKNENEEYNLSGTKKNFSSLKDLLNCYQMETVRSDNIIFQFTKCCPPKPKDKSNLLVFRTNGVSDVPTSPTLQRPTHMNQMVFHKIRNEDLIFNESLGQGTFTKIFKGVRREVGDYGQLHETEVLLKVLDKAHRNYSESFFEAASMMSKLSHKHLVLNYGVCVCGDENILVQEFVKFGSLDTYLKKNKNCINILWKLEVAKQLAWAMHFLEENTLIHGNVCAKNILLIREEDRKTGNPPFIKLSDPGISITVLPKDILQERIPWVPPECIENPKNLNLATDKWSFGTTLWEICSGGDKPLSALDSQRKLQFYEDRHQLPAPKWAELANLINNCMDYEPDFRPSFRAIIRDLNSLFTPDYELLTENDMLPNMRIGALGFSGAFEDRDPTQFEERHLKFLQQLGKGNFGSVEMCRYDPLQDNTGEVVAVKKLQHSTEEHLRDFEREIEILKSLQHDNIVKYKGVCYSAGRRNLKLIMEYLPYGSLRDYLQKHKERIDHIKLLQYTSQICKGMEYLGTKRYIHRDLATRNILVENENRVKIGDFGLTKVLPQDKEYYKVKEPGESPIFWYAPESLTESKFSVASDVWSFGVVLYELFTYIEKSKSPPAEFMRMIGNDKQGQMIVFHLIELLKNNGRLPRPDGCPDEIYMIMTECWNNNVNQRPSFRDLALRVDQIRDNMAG

The values below come from patent publication US20240116920A1 (priority 2020, published 2024).

pIC50: −log10 of the molar value. Like-named read-outs stand apart in the source and are kept apart here.

In test [1] the target is T1, TYK2 (Homo sapiens, UniProt P29597). The test is described as follows: biochemical.
The target in test [2] is T1, TYK2. As to conditions: read-out: IC50 TYK2.
A further test addresses JAK2 (Homo sapiens, UniProt O60674). As to conditions: read-out: IC50 JAK2.

At TYK2 [1], `O=C(Nc1nc2cccc(-c3ccc(CN4CCS(=O)(=O)CC4)cc3)n2n1)C1CC1` [filgotinib, reference compound] had a pIC50 of 7.15.

“4-(42S,4S)-1-(4-trifluoromethyl)-2-methylpiperidin-4-yl)amino)-N-methyl-1H-pyrrolo[2,3-b]pyridine-5-carboxamide [57a]”: the pIC50 was 7.23 at TYK2 [2] and 7.77 at JAK2.

Regarding “4-(42S,4S)-1-(4-Chlorobenzyl)-2-methylpiperidin-4-yl)amino)-N-methyl-1H-pyrrolo[2,3-b]pyridine-5-carboxamide [56a]”, the pIC50 on TYK2 [2] is 8.03.
